Results published in US20070074295A1 (priority 2000, published 2007).

Test system: parvalbumin mRNA
Test: Parvalbumin mRNA in situ hybridisation in chronic PCP model
Assay type: in vivo, rat
Settings: chronic PCP treatment, alone or with clozapine or haloperidol
Text: In order to validate further this chronic PCP model the effect of this treatment paradigm on parvalbumin mRNA expression was investigated. A decrease in parvalbumin mRNA was observed after chronic PCP treatment within the prelimbic region of the prefrontal cortex (controls 0.0717±0.0011, PCP 0.0536±0.0023 relative optical density (ROD)). This PCP-induced decrease was reversed by clozapine (0.0693±0.0050 ROD) but not by haloperidol (0.0557±0.0022 ROD) . PCP produced a significant decrease in parvalbumin mRNA within the ventral reticular nucleus of the thalamus (controls 0.6416±0.0122, PCP 0.5032±0.0194 ROD) which was reversed by both clozapine (0.6354±0.0173 ROD) and haloperidol (0.06199±0.0137) (see FIG. 12). This decrease in parvalbumin expression is in agreement with studies of schizophrenic post mortem tissue within the prefrontal cortex (Beasley & Reynolds, 1997) and anterior thalamus (Danos et al, 1998). The ability of clozapine but not haloperidol to reverse the decrease in parvalbumin expression in the prefrontal cortex is consistent with its ability to alleviate the cognitive deficits/negative symptoms in schizophrenia. Thus, reversal of parvalbumin deficits may be a useful marker for detecting atypical antipsychotic activity.
In situ hybridisation: a 45mer oligonucleotide probe was designed against bases 223-267 of the rat parvalbumin gene (GenBank accession number A819345). In situ hybridisation was carried out according to the method of Wisden and Morris (1994).

With `CN1CCN(C2=Nc3cc(Cl)ccc3Nc3ccccc32)CC1` [clozapine] the “parvalbumin mRNA, prelimbic region of the prefrontal cortex” value was 0.0693±0.0050 relative optical density (ROD) and the “parvalbumin mRNA, ventral reticular nucleus of the thalamus” value was 0.6354±0.0173 ROD.

For `O=C(CCCN1CCC(O)(c2ccc(Cl)cc2)CC1)c1ccc(F)cc1` [haloperidol], the “parvalbumin mRNA, prelimbic region of the prefrontal cortex” value was 0.0557±0.0022 relative optical density (ROD) and the “parvalbumin mRNA, ventral reticular nucleus of the thalamus” value was 0.06199±0.0137 ROD.
